Test: pH measurement of aqueous formulation samples
Format: physicochemical
Text: • (a) 36,100 g of water for injection was weighed into a vessel. 125.82 g of DL-Lactic acid (90.6% purity, parenteral grade) was slowly added and the mixture was stirred until the lactic acid dissolved. 195.3 g of 1-(4-{[4-(dimethylamino)piperidin-1-yl]carbonyl}phenyl)-3-[4-(4,6-dimorpholin-4-yl-1,3,5-triazin-2-yl)phenyl]urea was slowly added and the mixture was stirred until the material dissolved. 1900 g of mannitol powder (parenteral) was gradually added and the mixture was stirred until the material dissolved. Water for injection was added to make the solution up to a total weight of 38,760 g and the solution was stirred for a further 10 minutes. The pH was checked and found to be 3.4 with a solution temperature of 29.3° C. The solution was sterile filtered through an in-line 0.45 μm clarification filter and 0.22 μm filter assembly. This solution was then filled into 50 mL vials with a target fill volume of 20.8 mL for each vial. […]
The pH of the solution in the vial was measured as pH=3.52 at 23.2 degrees ° C.
At the end of the 5 day period the pH of each sample was measured and a visual observation of each sample was made using a light box as described in European Pharmacopoeia Method 2.9.20 (above), inspecting the samples against a black and a white background. […]
At the end of the specified rolling period the pH of each sample was measured and a visual observation of each sample was made using a light box as described in European Pharmacopoeia Method 2.9.20 (above), inspecting the samples against a black and a white background. […]
These samples were visually assessed made using a light box as described in European Pharmacopoeia Method 2.9.20 (above), inspecting the samples against a black and a white background. […] The pH was also measured. […]
These samples were visually assessed using a light box as described in European Pharmacopoeia Method 2.9.20 (above), inspecting the samples against a black and a white background. […] The pH was also measured. […]
The pH of the samples was assessed as follows: […]

With `CN(C)C1CCN(C(=O)c2ccc(NC(=O)Nc3ccc(-c4nc(N5CCOCC5)nc(N5CCOCC5)n4)cc3)cc2)CC1` [1-(4-{[4-(Dimethylamino)piperidin-1-yl]carbonyl}phenyl)-3-[4-(4,6-dimorpholin-4-yl-1,3,5-triazin-2-yl)phenyl]urea] the pH after dilution (Investigation 4, orthophosphoric acid samples diluted to 0.1 mg/mL, roller bed overnight) was 3.19, the “pH Check after 48 hours” value (Investigation 5, 3 mg/mL in 33.3 mM acetic acid) was 3.88 and the “pH Check after 6 Days” value (Investigation 5, 4 mg/mL in 33.3 mM acetic acid) was 4.07.

Source: patent publication US10660959B2, “Formulations of a PI3K/mTOR-inhibitor for intravenous administration” (Pfizer Inc., priority 2014, dated 2020)
